The list shows a part of the results, in another mix than the full data. Records with an inconclusive call do not appear. The source made the active and inactive calls. The call rests on the fitted dose curve; in most records, active means well fitted inhibition curve with a large enough effect in the polarisation, with a control signal flat (not every such curve was filed as active); inconclusive means small, poorly fitted or top-dose-only effect, or effect the other way, or a change in a side signal; inactive means no such curve, though single readings can be large or run the other way; the % refers to the polarisation.
On the % scale 0 is the no-effect control and ±100 the full control effect.

Amino acid sequences for entries named in this document (tags omitted).
UniProt Q13526, whole entry, looked up: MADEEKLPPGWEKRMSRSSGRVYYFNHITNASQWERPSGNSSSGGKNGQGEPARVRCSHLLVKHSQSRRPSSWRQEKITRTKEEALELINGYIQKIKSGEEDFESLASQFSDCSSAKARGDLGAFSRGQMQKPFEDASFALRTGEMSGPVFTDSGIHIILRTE

The assay deals with Peptidyl-prolyl cis-trans isomerase NIMA-interacting 1 (Homo sapiens) (UniProt Q13526). Description: qHTS Assay to Find Inhibitors of Pin1. As to conditions: Pin1 FP peptide displacement, HiFluor488, 10 min; at 115 µM (top of the series). For orientation: Quantitative high-throughput screening tests each substance at several concentrations.
For `CCN(N=Nc1nonc1N)c1nonc1N`, the activity, negative = inhibition is inactive: -0.992%. For `Cc1cc(SC(NC(=O)c2ccc(F)cc2)C(Cl)(Cl)Cl)ncn1` (configuration not stated) the value was inactive: -0.414%. As for `CCOP(=O)(Nc1ccccc1)OCC`, the figure is inactive: -5.71%; as for `CN(C(=O)Cc1ccc(Cl)c(Cl)c1)[C@H]1CCCC[C@@H]1N1CCCC1`, inactive: -7.49%. For `Cc1ccc(NP(=O)(Oc2ccccc2F)Oc2ccccc2F)nc1` the value was inactive: -5.65%; for `O=P(Nc1nc2ccc(Cl)cc2s1)(c1ccccc1)c1ccccc1`, inactive: 18.8%; for `CC(=O)Nc1ccc([As](=O)(O)O)cc1`, inactive: -0.683%. As for `O=C(O)c1ccccc1[As](=O)(O)O`, the activity, negative = inhibition is inactive: 0.892%. As for `CCCC1OP(N)(=O)OCC1CC` (configuration not stated), the figure is inactive: -4.2%. For `O=C(O)CNc1ccc([As](=O)(O)O)cc1` the value was inactive: 9.19%. For `COC(=O)C1(C)COP(=O)(Nc2ccccc2)OC1` (configuration not stated) the value was inactive: -0.273%; for `O=[N+]([O-])c1cccc(NC2=NCC(CBr)S2)c1` (configuration not stated), inactive: -6.33%; for `CC(C)(C)C(=O)NC(Sc1ccncn1)C(Cl)(Cl)Cl` (configuration not stated), inactive: 0.125%.

With `O=P(/N=c1/nc(-c2ccccc2)n(-c2ccccc2)s1)(Nc1ccccc1)Nc1ccccc1`, the activity, negative = inhibition was inactive: -2.24%. As for `O=C(Nc1cc([As](=O)(O)O)ccc1O)c1ccccc1`, the figure is inactive: -1.9%; as for `O=P1(N(CCCl)CCCl)OCCCS1` (configuration not stated), inactive: -1.88%; as for `CC1CCN(C(=O)Oc2c(Cl)cc(Cl)c3cccnc23)CC1`, inactive: -0.892%. `CC(C)=N/N=C(\N)N[N+](=O)[O-]`: the activity, negative = inhibition was inactive: -1.64%. For `CN(C)C(=O)OCCc1n(C)cc[n+]1C` the value was inactive: -5.68%; for `CCN(/C(=N/P(=O)(N1CCOCC1)N1CCOCC1)N1CCOCC1)c1ccc(OC)cc1`, inactive: 2.9%.

Regarding `Nc1ccc([As](=O)(O)c2ccc(N)cc2)cc1`, the activity, negative = inhibition was inactive: -7.7%. Consider `Cc1ccc(NP(=O)(Oc2ccccc2)Oc2ccccc2)nc1`, for which the activity, negative = inhibition is inactive: -5.07%. In the case of `O=[N+]([O-])c1cc([N+](=O)[O-])c(CCNc2ccccc2)c([N+](=O)[O-])c1`, the activity, negative = inhibition is inactive: 0.146%. As for `CCc1nc2c(n1)c1c(non1O)c1c2no[n+]1[O-]`, the figure is inactive: -11.1%.

With `CC(=O)N1C2C3N(C(C)=O)C1C1N(C(C)=O)C(C(N1C(C)=O)N3C(C)=O)N2C(C)=O`, the activity, negative = inhibition is inactive: 2.43%. In the case of `O=[N+]([O-])c1cccc2n[nH]nc12`, the activity, negative = inhibition was inactive: 0.57%. As for `COc1ccc(C2=NCC(CBr)S2)cc1` (configuration not stated), the figure is inactive: 1.07%.

The values are drawn from PubChem BioAssay AID504891 (National Center for Advancing Translational Sciences (NCATS), 2011).
